Measured values published in publication PMC8403869 (Proceedings of the National Academy of Sciences of the …, 2021).

Tested on: Nc1ncnc2c1ncn2[C@@H]1O[C@H](COP(=O)(O)OP(=O)(O)OP(=O)(O)O)[C@@H](O)[C@H]1O
Assay: purified protein
Conditions: 0.5-20 mM ATP, 2 mM MgCl2, pH 7.5, 37 °C, 0.06% digitonin, no cholesterol

human ABCG1 (G1) (Homo sapiens)
Km: 7.5 mM
